# pKi: −log10 of the molar value.
# Protein sequences, listed by entry. Tags and fused reporters are not part of them. Residues count along the entry.
# UniProt P14867, 28-456 limits assumed: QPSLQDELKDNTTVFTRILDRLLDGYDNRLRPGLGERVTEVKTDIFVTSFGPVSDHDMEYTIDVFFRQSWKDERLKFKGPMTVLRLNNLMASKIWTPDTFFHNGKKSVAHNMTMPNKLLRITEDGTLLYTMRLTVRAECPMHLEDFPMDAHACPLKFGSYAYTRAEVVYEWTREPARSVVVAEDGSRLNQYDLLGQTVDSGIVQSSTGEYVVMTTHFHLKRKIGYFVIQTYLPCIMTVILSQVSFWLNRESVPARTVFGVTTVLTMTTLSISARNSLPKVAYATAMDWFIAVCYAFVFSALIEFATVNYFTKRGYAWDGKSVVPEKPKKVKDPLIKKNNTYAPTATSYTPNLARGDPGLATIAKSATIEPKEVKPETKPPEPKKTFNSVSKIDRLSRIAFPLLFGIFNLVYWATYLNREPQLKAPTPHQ
# UniProt P18507, 40-475 limits assumed: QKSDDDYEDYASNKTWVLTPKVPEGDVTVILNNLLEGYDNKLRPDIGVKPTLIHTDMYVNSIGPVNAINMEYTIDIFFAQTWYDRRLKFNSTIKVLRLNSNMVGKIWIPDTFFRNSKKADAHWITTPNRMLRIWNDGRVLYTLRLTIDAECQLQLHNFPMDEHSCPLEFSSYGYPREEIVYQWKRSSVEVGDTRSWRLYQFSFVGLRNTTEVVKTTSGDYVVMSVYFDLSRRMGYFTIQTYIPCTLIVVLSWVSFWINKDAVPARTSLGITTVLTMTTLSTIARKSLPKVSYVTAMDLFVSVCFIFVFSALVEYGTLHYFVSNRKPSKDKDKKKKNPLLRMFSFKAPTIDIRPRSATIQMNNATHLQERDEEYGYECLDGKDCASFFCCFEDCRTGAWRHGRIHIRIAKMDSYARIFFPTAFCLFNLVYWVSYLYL
# UniProt P28472, 26-473 limits assumed: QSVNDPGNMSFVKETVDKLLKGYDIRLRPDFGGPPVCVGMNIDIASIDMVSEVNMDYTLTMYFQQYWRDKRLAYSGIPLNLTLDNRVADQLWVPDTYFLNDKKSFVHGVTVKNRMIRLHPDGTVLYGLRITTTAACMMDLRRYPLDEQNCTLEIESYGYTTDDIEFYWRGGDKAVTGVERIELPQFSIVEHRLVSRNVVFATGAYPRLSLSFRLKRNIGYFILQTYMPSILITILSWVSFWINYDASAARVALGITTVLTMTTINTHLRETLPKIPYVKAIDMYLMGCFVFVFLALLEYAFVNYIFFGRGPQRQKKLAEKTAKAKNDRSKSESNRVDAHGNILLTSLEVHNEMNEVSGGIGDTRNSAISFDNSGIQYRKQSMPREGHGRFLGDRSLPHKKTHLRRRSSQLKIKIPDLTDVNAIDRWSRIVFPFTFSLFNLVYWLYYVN
# UniProt P34903, 29-492 limits assumed: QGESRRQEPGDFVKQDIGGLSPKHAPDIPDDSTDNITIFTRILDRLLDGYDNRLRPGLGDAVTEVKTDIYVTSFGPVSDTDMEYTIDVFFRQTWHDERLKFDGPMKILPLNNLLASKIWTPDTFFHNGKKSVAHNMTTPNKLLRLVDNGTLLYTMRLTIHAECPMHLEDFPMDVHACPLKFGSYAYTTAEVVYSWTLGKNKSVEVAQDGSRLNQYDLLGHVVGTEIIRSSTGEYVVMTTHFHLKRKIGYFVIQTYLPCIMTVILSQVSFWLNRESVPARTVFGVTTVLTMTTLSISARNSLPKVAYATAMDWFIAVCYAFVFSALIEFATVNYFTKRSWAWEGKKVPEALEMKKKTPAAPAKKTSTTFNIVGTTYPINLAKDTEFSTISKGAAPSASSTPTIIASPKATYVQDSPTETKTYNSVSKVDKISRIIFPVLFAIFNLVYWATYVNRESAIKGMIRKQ
# UniProt P31644, 32-462 limits assumed: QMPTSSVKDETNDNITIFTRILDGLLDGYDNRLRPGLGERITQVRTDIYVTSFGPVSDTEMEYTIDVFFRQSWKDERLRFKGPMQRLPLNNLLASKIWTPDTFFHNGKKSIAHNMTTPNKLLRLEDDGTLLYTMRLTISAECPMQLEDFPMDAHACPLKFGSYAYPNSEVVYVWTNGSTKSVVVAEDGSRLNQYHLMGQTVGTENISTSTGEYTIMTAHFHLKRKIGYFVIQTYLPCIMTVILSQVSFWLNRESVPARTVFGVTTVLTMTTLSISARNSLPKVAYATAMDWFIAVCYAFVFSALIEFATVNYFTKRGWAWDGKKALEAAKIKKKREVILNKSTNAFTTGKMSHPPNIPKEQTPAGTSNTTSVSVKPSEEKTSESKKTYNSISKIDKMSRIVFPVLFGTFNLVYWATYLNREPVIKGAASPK
# UniProt P47869, 29-451 limits assumed: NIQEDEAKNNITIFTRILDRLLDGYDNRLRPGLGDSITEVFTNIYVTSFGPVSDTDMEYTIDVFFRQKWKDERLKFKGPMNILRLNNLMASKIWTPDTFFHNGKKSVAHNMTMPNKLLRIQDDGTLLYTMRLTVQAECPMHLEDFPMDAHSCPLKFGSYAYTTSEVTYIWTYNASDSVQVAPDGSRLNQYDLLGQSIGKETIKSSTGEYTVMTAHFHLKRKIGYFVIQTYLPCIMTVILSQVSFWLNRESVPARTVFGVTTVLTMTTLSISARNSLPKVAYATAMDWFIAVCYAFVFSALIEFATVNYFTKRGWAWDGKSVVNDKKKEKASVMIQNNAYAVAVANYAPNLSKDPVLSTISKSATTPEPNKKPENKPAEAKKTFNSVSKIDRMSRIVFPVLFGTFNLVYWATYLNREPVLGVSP
# Assays:
# [1] = molecular target: GABA-A receptor; alpha-1/beta-3/gamma-2 (Homo sapiens, UniProt P14867+P18507+P28472); assay: Inhibition of [3H]-Ro- 15-1788 binding to recombinant human gamma-aminobutyric-acid A receptor alpha-1-beta-3-gamma-2
# [2] = molecular target: GABA-A receptor; alpha-3/beta-3/gamma-2 (Homo sapiens, UniProt P18507+P28472+P34903); assay: Inhibition of [3H]-Ro- 15-1788 binding to recombinant human gamma-aminobutyric-acid A receptor alpha-3-beta-3-gamma-2
# [3] = molecular target: GABA-A receptor; alpha-5/beta-3/gamma-2 (Homo sapiens, UniProt P18507+P28472+P31644); assay: Inhibition of [3H]-Ro- 15-1788 binding to recombinant human gamma-aminobutyric-acid A receptor alpha-5-beta-3-gamma-2
# [4] = molecular target: GABA-A receptor; alpha-2/beta-3/gamma-2 (Homo sapiens, UniProt P18507+P28472+P47869); assay: Inhibition of [3H]-Ro- 15-1788 binding to recombinant human gamma-aminobutyric-acid A receptor alpha-2-beta-3-gamma-2
structure (smiles),measurement,setting,value
CNC1=Nc2ccc(Cl)cc2C(c2ccccc2)=[N+]([O-])C1,pKi,[1],6.22
same,pKi,[2],6.33
same,pKi,[3],6.43
same,pKi,[4],6.41
